Two compounds from PubChem BioAssay AID463 (The Scripps Research Institute Molecular Screening Center, 2006) can be followed below.

The list shows a part of the results, in another mix than the full data. Some tests of the compounds listed are not included; inactive here does not mean inactive elsewhere. Activity calls are given as the source filed them.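 How the source made its calls: active means inhibition above the mean inhibition of all tested compounds plus 3 SD (cut at about 28% in these data); inactive means the rest.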

The nature of this experiment: cytotoxicity toward Jurkat T cells, primary screen, cytotoxicity control, cell-based, Jurkat E6.1, 60K MLSMR library (AID 463). The following applies: Jurkat E6.1 viability, ATP luminescence, 48 h; at 4 µM; active compounds read high.
One may read the inhibition as the drop in the measured response relative to a control, in per cent. With `O=C(OC1CN2CCC1CC2)C(CO)(c1ccccc1)c1ccccc1` (configuration not stated), the inhibition is inactive: -2%.

In the case of `CN(C)c1cccc(C(=O)NCC2(N(C)C)CCCCC2)c1`, the inhibition was inactive: -0.1%.
